Assays:
human hemoglobin (human) [1] = target: human hemoglobin (human) (UniProt P69905); test: cell-based or functional assay
human hemoglobin (human) [2] = target: human hemoglobin (human) (UniProt P69905); test: OC-Hemodia Auto III immunoassay, Hb 6.2 pmol/mL, Hpt 6.2 pmol/mL (1 Unit), no stool, initial value
human hemoglobin (human) [3] = target: human hemoglobin (human) (UniProt P69905); test: OC-Hemodia Auto III immunoassay, Hb 6.2 pmol/mL, Hpt 3.1 pmol/mL (0.5 Unit), no stool, initial value
human hemoglobin (human) [4] = target: human hemoglobin (human) (UniProt P69905); test: OC-Hemodia Auto III immunoassay, Hb 9.3 pmol/mL, Hpt 9.3 pmol/mL (1 Unit), 0.5% feces, initial value
human hemoglobin (human) [5] = target: human hemoglobin (human) (UniProt P69905); test: OC-Hemodia Auto III immunoassay, Hb 6.2 pmol/mL, Hpt 1.55 pmol/mL (0.25 Unit), no stool, initial value
human hemoglobin (human) [6] = target: human hemoglobin (human) (UniProt P69905); test: OC-Hemodia Auto III immunoassay, Hb 9.3 pmol/mL, Hpt 4.65 pmol/mL (0.5 Unit), 0.5% feces, initial value
human hemoglobin (human) [7] = target: human hemoglobin (human) (UniProt P69905); test: OC-Hemodia Auto III immunoassay, Hb 6.2 pmol/mL, Hpt 0.775 pmol/mL (0.125 Unit), no stool, initial value
human hemoglobin (human) [8] = target: human hemoglobin (human) (UniProt P69905); test: OC-Hemodia Auto III immunoassay, Hb 9.3 pmol/mL, Hpt 2.325 pmol/mL (0.25 Unit), 0.5% feces, initial value
human hemoglobin (human) [9] = target: human hemoglobin (human) (UniProt P69905); test: OC-Hemodia Auto III immunoassay, Hb 6.2 pmol/mL, Hpt 12.4 pmol/mL (2 Unit), no stool, initial value

Sequences of proteins named here, by UniProt entry; tags and fusion partners are left off. Residues count along the entry.
UniProt P69905, 2-142, chain 1 of 2: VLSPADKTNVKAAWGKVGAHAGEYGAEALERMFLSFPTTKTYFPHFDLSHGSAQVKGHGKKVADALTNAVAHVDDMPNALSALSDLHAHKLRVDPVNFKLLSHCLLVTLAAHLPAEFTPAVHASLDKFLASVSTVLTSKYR

## Equine dHpt (PNGase)
Human hemoglobin (human) [1]
  Residual Hb ratio (%), 37°C 7 days, Hpt 0.775 pmol/mL (0.125 Unit), no stool: 49%
  Residual Hb ratio (%), 37°C 7 days, Hpt 1.55 pmol/mL (0.25 Unit), no stool: 56%
  Residual Hb ratio (%), 37°C 7 days, Hpt 2.325 pmol/mL (0.25 Unit), 0.5% feces: 21%
  Residual Hb ratio (%), 37°C 7 days, Hpt 3.1 pmol/mL (0.5 Unit), no stool: 71%
  Residual Hb ratio (%), 37°C 7 days, Hpt 4.65 pmol/mL (0.5 Unit), 0.5% feces: 36%
  Residual Hb ratio (%), 37°C 7 days, Hpt 6.2 pmol/mL (1 Unit), no stool: 96%
  Residual Hb ratio (%), 37°C 7 days, Hpt 9.3 pmol/mL (1 Unit), 0.5% feces: 68%
  Residual Hb ratio (%), 37°C 14 days, Hpt 0.775 pmol/mL (0.125 Unit), no stool: 28%
  Residual Hb ratio (%), 37°C 14 days, Hpt 1.55 pmol/mL (0.25 Unit), no stool: 41%
  Residual Hb ratio (%), 37°C 14 days, Hpt 2.325 pmol/mL (0.25 Unit), 0.5% feces: 17%
  Residual Hb ratio (%), 37°C 14 days, Hpt 3.1 pmol/mL (0.5 Unit), no stool: 67%
  Residual Hb ratio (%), 37°C 14 days, Hpt 4.65 pmol/mL (0.5 Unit), 0.5% feces: 32%
  Residual Hb ratio (%), 37°C 14 days, Hpt 6.2 pmol/mL (1 Unit), no stool: 101%
  Residual Hb ratio (%), 37°C 14 days, Hpt 9.3 pmol/mL (1 Unit), 0.5% feces: 66%
  residual Hb ratio, 1 Unit of Hpt, 37°C 7 days, no stool: > 70%
Human hemoglobin (human) [2]
  Ratio to no Hpt addition (%): 68%
Human hemoglobin (human) [3]
  Ratio to no Hpt addition (%): 88%
Human hemoglobin (human) [4]
  Ratio to no Hpt addition (%): 92%
Human hemoglobin (human) [5]
  Ratio to no Hpt addition (%): 92%
Human hemoglobin (human) [6]
  Ratio to no Hpt addition (%): 97%
Human hemoglobin (human) [7]
  Ratio to no Hpt addition (%): 97%
Human hemoglobin (human) [8]
  Ratio to no Hpt addition (%): 98%

## Human dHpt (ENGase) (from UniProt P00738 19-406)
Human hemoglobin (human) [1]
  Residual Hb ratio (%), 37°C 7 days, Hpt 0.775 pmol/mL (0.125 Unit), no stool: 48%
  Residual Hb ratio (%), 37°C 7 days, Hpt 1.55 pmol/mL (0.25 Unit), no stool: 51%
  Residual Hb ratio (%), 37°C 7 days, Hpt 2.325 pmol/mL (0.25 Unit), 0.5% feces: 23%
  Residual Hb ratio (%), 37°C 7 days, Hpt 3.1 pmol/mL (0.5 Unit), no stool: 57%
  Residual Hb ratio (%), 37°C 7 days, Hpt 4.65 pmol/mL (0.5 Unit), 0.5% feces: 41%
  Residual Hb ratio (%), 37°C 7 days, Hpt 6.2 pmol/mL (1 Unit), no stool: 80%
  Residual Hb ratio (%), 37°C 7 days, Hpt 9.3 pmol/mL (1 Unit), 0.5% feces: 84%
  Residual Hb ratio (%), 37°C 7 days, Hpt 12.4 pmol/mL (2 Unit), no stool: 101%
  Residual Hb ratio (%), 37°C 14 days, Hpt 0.775 pmol/mL (0.125 Unit), no stool: 22%
  Residual Hb ratio (%), 37°C 14 days, Hpt 1.55 pmol/mL (0.25 Unit), no stool: 31%
  Residual Hb ratio (%), 37°C 14 days, Hpt 2.325 pmol/mL (0.25 Unit), 0.5% feces: 19%
  Residual Hb ratio (%), 37°C 14 days, Hpt 3.1 pmol/mL (0.5 Unit), no stool: 44%
  Residual Hb ratio (%), 37°C 14 days, Hpt 4.65 pmol/mL (0.5 Unit), 0.5% feces: 40%
  Residual Hb ratio (%), 37°C 14 days, Hpt 6.2 pmol/mL (1 Unit), no stool: 83%
  Residual Hb ratio (%), 37°C 14 days, Hpt 9.3 pmol/mL (1 Unit), 0.5% feces: 84%
  Residual Hb ratio (%), 37°C 14 days, Hpt 12.4 pmol/mL (2 Unit), no stool: 100%
  residual Hb ratio, 1 Unit of Hpt, 37°C 7 days, no stool: > 70%
Human hemoglobin (human) [2]
  Ratio to no Hpt addition (%): 87%
Human hemoglobin (human) [9]
  Ratio to no Hpt addition (%): 65%
Human hemoglobin (human) [3]
  Ratio to no Hpt addition (%): 93%
Human hemoglobin (human) [4]
  Ratio to no Hpt addition (%): 86%
Human hemoglobin (human) [5]
  Ratio to no Hpt addition (%): 98%
Human hemoglobin (human) [6]
  Ratio to no Hpt addition (%): 94%
Human hemoglobin (human) [7]
  Ratio to no Hpt addition (%): 98%
Human hemoglobin (human) [8]
  Ratio to no Hpt addition (%): 98%

Source: patent EP4675276A1
